## scFv variants of Ab-14 (light chain) against a SARS-CoV-2 spike peptide

Data: MIT Lincoln Laboratory AlphaSeq set, Li et al. 2023, doi:10.1038/s41467-023-39022-2, as distributed in FLAb.

Target peptide (SARS-CoV-2 spike, HR2 region): PDVDLGDISGINAS

Parent scFv Ab-14: VH joined to VL by a 15-residue (Gly4Ser)3 linker. Changes lie in the light chain CDRs alone.
VH: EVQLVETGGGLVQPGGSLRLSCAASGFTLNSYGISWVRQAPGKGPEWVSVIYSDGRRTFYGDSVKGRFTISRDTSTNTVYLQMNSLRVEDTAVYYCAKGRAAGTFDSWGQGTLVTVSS
VL: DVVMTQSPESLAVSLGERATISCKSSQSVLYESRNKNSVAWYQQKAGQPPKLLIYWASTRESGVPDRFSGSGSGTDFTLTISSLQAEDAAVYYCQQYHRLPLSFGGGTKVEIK

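The parent was found by panning a naive human phage display library on the peptide. Designed CDR sequences, proposed from the first random library and measured here. Several design methods are mixed in this list. AlphaSeq pools MATa yeast showing the antibodies with MATalpha yeast showing the peptide. After mating in shaken culture at 30 °C for 16 h, diploids were selected and their barcode pairs sequenced. A regression on co-assayed BCL2-family reference pairs converts the normalised counts of each replicate to an apparent Kd. The assay was run in six technical replicates.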

Variants are written as CDR1, CDR2 and CDR3 of the light chain (limits as in the source). Parent: KSSQSVLYESRNKNSVA, WASTRES, QQYHRLPLS. Variants here have at most six changes. Kd is apparent (estimated from mating counts) and averaged on the log scale over replicates with a signal. Smaller is tighter. Where no diploid with the target was found in any replicate, the entry reads "nd": below detection, most likely a poor binder, though not proof of it. Entries are sorted by rising average, undetected variants last.

* HSSPSELYESRNKNNVA | NASTRES | QQYHRLPLS: 230 pM (6 of 6 replicates)
* KMSQSVGYESRNKNSVA | DASTRES | QQYHRLPLS: 420 pM (6 of 6 replicates)
* KLSQSMLYESRNKNSVA | NASTRES | QQYHRLPLT: 420 pM (6 of 6 replicates)
* KLDQSMLYESRNKNSVA | NASQRES | QQYHRLPLS: 570 pM (6 of 6 replicates)
* KMSQSVLMEHRNKNSVA | DASTRES | QQYHRLPLS: 630 pM (6 of 6 replicates)
* KLPQSMGYESRNKNSVA | NASTRES | QQYHRLPLS: 780 pM (6 of 6 replicates)
* KLQQSELYESRNKNSVA | NASLRES | QQYHRLPLS: 780 pM (6 of 6 replicates)
* KLSQSDLYEDRNKNSVA | NASQRES | QQYHRLPLS: 810 pM (6 of 6 replicates)
* KISQSVLYEFRNLNSVA | NALTRES | QEYHRLPLS: 940 pM (6 of 6 replicates)
* KSSQSWLYESRNKNSVA | HASTRMQ | QQYHRLPLS: 950 pM (6 of 6 replicates)
* HSSPSHLYESRNKNSVA | NASTRES | QQYHRLPLS: 1.0 nM (6 of 6 replicates)
* HLSQSVLYESRNKNSVA | NASTRES | QQYHRLPLS: 1.1 nM (6 of 6 replicates)
* KLWESVLYESRNKNSVA | HASTRED | QQYHRLPLS: 1.1 nM (6 of 6 replicates)
* FLSQSQLYESRNKNSVA | NASTRLS | QQYHRLPLS: 1.1 nM (6 of 6 replicates)
* KLSQSDLYESRNKNQVA | EASTRES | QQYHRLPLS: 1.2 nM (6 of 6 replicates)
* KSSVSGLYEARNKNSVA | NASTRES | QQYHRLPLS: 1.2 nM (6 of 6 replicates)
* KSSQSVLDESRNKNSVA | DASTRES | QQYHRLPLS: 1.5 nM (6 of 6 replicates)
* HSSPSVAYESRNKNSVA | NASTREA | QQYHRLPLS: 1.6 nM (6 of 6 replicates)
* KWSQSVKFESRNKNSVA | DASTRES | QQYHRLPLS: 1.7 nM (6 of 6 replicates)
* KSSCSYLEESRNKNSVA | EASTRES | QQYHRLPLS: 1.7 nM (6 of 6 replicates)
* KSSQSVLYESRNKNSVA | GGSTRES | QQYHRLPLW: 2.2 nM (6 of 6 replicates)
* KSSWSFLYESRNKNSVA | EASTRES | QQYHRLPLS: 2.5 nM (6 of 6 replicates)
* KSSISVKFESRNKNSVA | DASTRES | QQYHRLPLS: 2.8 nM (6 of 6 replicates)
* KFSQSVLYESRNKNSVA | DASTRES | QQYHRLPLD: 3.0 nM (6 of 6 replicates)
* KSSISYLYGSRNTNSVA | EASTRES | QQYHRLPLS: 3.9 nM (6 of 6 replicates)
* KSSQSVLYESRNKGSVA | SASTRES | QQYHRLCLS: 4.5 nM (5 of 6 replicates)
* KSSQSKLYESRNKNSVA | EASTRES | QQYHRLPLS: 4.8 nM (6 of 6 replicates)
* KFSQSVLYESRNKNSVA | WASTRES | QQYYRLPLS: 5.3 nM (6 of 6 replicates)
* KSSYSYLYESGNKNSVA | EASTRES | QQYHRLPLS: 10 nM (6 of 6 replicates)
* KSSQSNLDGSRNKNSVA | KASTRES | QQYIRLPLS: 11 nM (6 of 6 replicates)
* KSSQSVLYESANKNSVA | WASTREA | QQYHRLPLS: 13 nM (6 of 6 replicates)
* KSSQEVLYESFNKNSVA | DASTRES | QEYHRMPLS: 18 nM (6 of 6 replicates)
* KKSQSSLYESRAKNSVA | EASTRES | QQYHRLPLS: 28 nM (2 of 6 replicates)
* KVSQSELYHSRNKNSVA | WASTRES | QQYHRLPLS: 48 nM (6 of 6 replicates)
* KMSQSVLYESRNKNSVA | QASTRES | QQYHRLPLS: 56 nM (6 of 6 replicates)
* KSSHSALYESRNKNSVA | AASTRES | QQCHRLPLS: 91 nM (3 of 6 replicates)
* KSSQSVHYESRNKNSVA | WASTRES | QQYFRLPLS: 100 nM (6 of 6 replicates)
* KSSQSVLYESRNKNSVA | WASTRET | QQYHRLPLS: 180 nM (6 of 6 replicates)
* KLPQNVLYESCNKNSVA | WASARES | QQYHRLPLS: 180 nM (4 of 6 replicates)
* KSYQSLLYESRPKNSVA | WASTRES | QQYHRLPLS: 200 nM (2 of 6 replicates)
* KSSQSVLQEARNKNSVA | WASTRES | QQYHRLWLS: 270 nM (5 of 6 replicates)
* KSEQSVLYSRRNKNSVA | DASTRES | QQYHRLPAS: 690 nM (2 of 6 replicates)
* KSDQSVLYESRNKNSVA | WASTRES | QAYHRLPLL: nd (0 of 6 replicates)
* KSVQSVLYNSRFKNSVA | WASTRSS | QCYHRLPLS: nd (0 of 6 replicates)
* KLSQSVLYCSRNKNSVA | WASTRES | QQYHILPLS: nd (0 of 6 replicates)
* QSSQSVWYESRNKNSVA | WASTRES | QQYLGLPLS: nd (0 of 6 replicates)

4 of these entries, quoted again:

| CDR-L1 | CDR-L2 | CDR-L3 | Kd (apparent) | replicates with signal |
|---|---|---|---|---|
| KSSQSVLDESRNKNSVA | DASTRES | QQYHRLPLS | 1.5 nM | 6 of 6 |
| KSSQSWLYESRNKNSVA | HASTRMQ | QQYHRLPLS | 950 pM | 6 of 6 |
| KSSQSVLYESRNKNSVA | GGSTRES | QQYHRLPLW | 2.2 nM | 6 of 6 |
| KSSQSKLYESRNKNSVA | EASTRES | QQYHRLPLS | 4.8 nM | 6 of 6 |

The authors' rule: three or more of the six replicates give a measured affinity, fewer mean a poor binder. The parent sequence was in this pool as ten entries: three were never detected, three once, and four in most replicates, with averages from 2.2 nM to 240 nM. The range of this assay differs from that of the first round, and the authors advise against merging the two. Background: pairings of all light chain designs with three empty control strains gave a value in 4% of cases (median 430 nM, 5th percentile 38 nM). Values in that range, when seen in few replicates, are hard to tell from nonspecific mating.